Literature values, collected in publication PMC5570449.
Read-outs that look alike come from different tables or passages of the source.

Amino acid sequences for entries named in this document (tags omitted). Residues count along the entry.
UniProt Q96RL1, 77-102: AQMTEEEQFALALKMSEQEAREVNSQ
UniProt Q96RL1, 102-127: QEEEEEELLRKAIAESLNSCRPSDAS

Experiments:
ubiquitin (Homo sapiens) [1] = target: ubiquitin (Homo sapiens) (UniProt P0CG48)
ubiquitin (Homo sapiens) [2] = target: ubiquitin (Homo sapiens) (UniProt P0CG48); remark: listed apart in the source

Row | Substance | Kd (ubiquitin (Homo sapiens) [1]) [µM] | Kd (ubiquitin (Homo sapiens) [2]) [µM]
1 | RAP80 UIM1 UIM1 (from UniProt Q96RL1) | 520 | 
2 | RAP80 UIM2 UIM2 (from UniProt Q96RL1) |  | 510
